# Molecular target: EphA4 LBD (Homo sapiens, UniProt P54764)
# Amino acid sequences for entries named in this document (tags omitted). Residues count along the entry.
# UniProt P54764, 30-209 limits assumed: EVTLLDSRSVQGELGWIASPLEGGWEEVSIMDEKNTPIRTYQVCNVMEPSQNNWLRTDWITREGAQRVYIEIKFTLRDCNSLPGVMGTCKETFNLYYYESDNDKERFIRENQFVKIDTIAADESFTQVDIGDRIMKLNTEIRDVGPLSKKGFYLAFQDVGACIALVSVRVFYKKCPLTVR
# Assay: Fluorescence polarization assay (FPA), displacement of FITC-labeled KYL peptide
# Format: binding
# Details: EphA4 LBD, displacement of FITC-KYL peptide, PBS pH 7.2; read-out: Ki by FPA
# Method: Fluorescence Polarization Assay (FPA):
# The EphA4 binding KYL peptide ([…], Murai et al. Mol. Cell. Neurosci. 2003, 24:1000-1011) was labeled at the N-terminus with fluorescein isothiocyanate (FITC) and purified by HPLC. For competitive binding assays, 1 μL of 200 μM EphA4 LBD was pre-incubated with the tested compounds at various concentrations in 98 μL PBS (pH=7.2) in 96-well black plates at room temperature for 10 min, and then 1 μL of 500 μM FITC labeled EphA4 peptide was added to produce a final volume of 100 μL. The KYL and DMSO were incubated in each assay as positive and negative controls, respectively. After 30 min of incubation at room temperature, the polarization values in millipolarization units were measured at excitation/emission wavelengths of 480/535 nm with a multilabel plate reader (PerkinElmer, Waltham, Mass., USA). Ki value was determined by fitting the experimental data to a Sigmoidal dose-response (variable slope) nonlinear regression model (GraphPad Prism version 5.01 for Windows, GraphPad Software, San Diego, Calif., USA).
# (B) EphA4-LBD was dissolved in 50 mM potassium phosphate buffer (pH 6.5), containing 100 mM NaCl. ITC were measured.
compound,measurement,value
"COc1ccc2[nH]cc(CCNC(=O)[C@H](Cc3ccncc3)NC(=O)[C@H](Cc3ccc(Cl)cc3)NC(=O)[C@H](Cc3c[nH]c4ccc(O)cc34)NC(=O)CCCN)c2c1 [Compound 7, 4-amino-N-((S)-1-((S)-3-(4-chlorophenyl)-1-((S)-1-(2-(5-methoxy-1H-indol-3-yl)ethylamino)-1-oxo-3-(pyridin-4-yl)propan-2-ylamino)-1-oxopropan-2-ylamino)-3-(5-hydroxy-1H-indol-3-yl)-1-oxopropan-2-yl)butanamide]",Ki,< 1 µM

# — patent publication US20180127464A1, “NOVEL EPHA4 INHIBITORS TARGETING ITS LIGAND BINDING DOMAIN” (Sanford-Burnham Medical Research Institute, priority 2015, published 2018)
